Experiments:
[1] = biological target: Vascular endothelial growth factor receptor 2 (Homo sapiens, UniProt P35968); assay: Inhibition of KDR by HTRF assay
Procedure, shortened: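 KDR read by homogeneous time-resolved fluorescence with a biotinylated gastrin substrate. IC50 is the mean of two or more separate determinations, each in duplicate.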

By UniProt entry, the sequences of proteins in these tests, tags left out. Where a name states a change or a piece, a line headed by the entry shows the natural chain unless it says otherwise.
UniProt P35968, whole entry: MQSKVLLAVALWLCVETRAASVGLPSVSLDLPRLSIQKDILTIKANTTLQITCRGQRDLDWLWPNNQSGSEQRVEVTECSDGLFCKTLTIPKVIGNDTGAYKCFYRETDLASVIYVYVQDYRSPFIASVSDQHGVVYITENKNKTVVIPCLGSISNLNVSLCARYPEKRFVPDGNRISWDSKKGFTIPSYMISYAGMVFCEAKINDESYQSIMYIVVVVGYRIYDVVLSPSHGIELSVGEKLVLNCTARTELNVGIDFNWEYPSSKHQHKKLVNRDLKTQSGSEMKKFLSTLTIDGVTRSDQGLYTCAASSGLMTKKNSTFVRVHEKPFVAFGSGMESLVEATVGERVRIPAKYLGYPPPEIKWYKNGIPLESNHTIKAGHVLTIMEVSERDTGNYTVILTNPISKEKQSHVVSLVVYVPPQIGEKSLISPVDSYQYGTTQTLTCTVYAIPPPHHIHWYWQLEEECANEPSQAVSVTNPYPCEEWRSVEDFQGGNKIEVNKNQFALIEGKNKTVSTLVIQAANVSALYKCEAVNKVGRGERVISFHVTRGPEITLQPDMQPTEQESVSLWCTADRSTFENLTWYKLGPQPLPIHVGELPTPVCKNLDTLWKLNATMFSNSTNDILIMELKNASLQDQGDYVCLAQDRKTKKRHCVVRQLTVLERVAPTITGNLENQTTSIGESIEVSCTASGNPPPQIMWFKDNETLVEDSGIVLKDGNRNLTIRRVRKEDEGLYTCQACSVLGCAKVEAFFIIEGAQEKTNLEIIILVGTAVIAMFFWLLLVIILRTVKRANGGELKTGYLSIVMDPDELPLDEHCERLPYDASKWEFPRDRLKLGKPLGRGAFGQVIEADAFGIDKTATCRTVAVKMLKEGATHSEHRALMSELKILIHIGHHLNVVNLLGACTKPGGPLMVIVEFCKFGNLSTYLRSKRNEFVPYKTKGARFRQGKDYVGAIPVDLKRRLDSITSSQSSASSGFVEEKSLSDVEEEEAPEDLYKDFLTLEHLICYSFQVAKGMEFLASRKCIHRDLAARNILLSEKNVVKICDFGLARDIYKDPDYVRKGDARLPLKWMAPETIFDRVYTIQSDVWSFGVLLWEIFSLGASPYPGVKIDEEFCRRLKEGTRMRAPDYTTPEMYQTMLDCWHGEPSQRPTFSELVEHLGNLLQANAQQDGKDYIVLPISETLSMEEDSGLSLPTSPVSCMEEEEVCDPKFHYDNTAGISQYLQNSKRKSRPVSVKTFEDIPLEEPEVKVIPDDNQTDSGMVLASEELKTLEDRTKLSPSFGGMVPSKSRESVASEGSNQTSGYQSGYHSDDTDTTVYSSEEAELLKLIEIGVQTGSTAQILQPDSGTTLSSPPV
UniProt Q02763: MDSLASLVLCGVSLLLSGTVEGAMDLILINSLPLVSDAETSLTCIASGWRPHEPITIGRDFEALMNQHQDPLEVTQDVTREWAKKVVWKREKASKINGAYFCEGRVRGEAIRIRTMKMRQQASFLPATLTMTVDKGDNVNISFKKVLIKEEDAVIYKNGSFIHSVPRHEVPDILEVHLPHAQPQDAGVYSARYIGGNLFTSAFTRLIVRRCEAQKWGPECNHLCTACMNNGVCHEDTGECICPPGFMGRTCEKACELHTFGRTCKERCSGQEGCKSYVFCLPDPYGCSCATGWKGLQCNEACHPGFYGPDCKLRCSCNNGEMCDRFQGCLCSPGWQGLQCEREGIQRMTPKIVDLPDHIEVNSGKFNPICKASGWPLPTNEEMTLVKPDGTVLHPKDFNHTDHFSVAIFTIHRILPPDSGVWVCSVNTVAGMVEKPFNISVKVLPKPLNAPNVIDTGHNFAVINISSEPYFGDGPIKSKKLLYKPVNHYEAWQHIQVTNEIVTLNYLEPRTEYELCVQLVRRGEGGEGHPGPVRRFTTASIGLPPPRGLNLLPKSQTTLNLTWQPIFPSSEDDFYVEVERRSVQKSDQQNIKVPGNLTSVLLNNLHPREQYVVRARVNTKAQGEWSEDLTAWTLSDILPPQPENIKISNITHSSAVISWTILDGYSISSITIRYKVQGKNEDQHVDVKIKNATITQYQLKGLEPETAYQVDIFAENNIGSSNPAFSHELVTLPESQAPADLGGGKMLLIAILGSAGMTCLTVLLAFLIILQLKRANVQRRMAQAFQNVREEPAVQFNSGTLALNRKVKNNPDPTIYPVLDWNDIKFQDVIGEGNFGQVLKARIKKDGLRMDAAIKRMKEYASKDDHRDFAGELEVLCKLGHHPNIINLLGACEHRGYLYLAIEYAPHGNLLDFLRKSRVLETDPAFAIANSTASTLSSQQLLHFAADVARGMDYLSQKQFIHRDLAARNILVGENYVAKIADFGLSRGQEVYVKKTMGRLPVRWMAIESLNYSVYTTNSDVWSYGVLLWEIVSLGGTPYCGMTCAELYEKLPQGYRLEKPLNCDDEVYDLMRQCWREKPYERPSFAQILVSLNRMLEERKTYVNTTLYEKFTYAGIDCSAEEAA
UniProt P06239: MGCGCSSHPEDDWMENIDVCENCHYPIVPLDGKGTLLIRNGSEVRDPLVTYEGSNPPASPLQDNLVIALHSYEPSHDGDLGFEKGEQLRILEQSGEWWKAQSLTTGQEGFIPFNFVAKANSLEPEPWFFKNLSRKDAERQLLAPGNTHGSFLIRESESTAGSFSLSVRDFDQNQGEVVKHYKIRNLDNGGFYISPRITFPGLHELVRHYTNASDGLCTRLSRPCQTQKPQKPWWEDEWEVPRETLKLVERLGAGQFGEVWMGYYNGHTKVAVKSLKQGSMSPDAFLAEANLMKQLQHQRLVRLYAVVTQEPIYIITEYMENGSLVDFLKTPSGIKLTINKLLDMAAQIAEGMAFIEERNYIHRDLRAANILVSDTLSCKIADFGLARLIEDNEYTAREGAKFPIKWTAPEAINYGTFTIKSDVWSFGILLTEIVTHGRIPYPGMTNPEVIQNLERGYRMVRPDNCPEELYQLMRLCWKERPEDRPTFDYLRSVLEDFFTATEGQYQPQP

[2] = biological target: Angiopoietin-1 receptor (Homo sapiens, UniProt Q02763); assay: Inhibition of Tie2
[3] = biological target: Tyrosine-protein kinase Lck (Homo sapiens, UniProt P06239); assay: Inhibition of Lck

Row | SMILES | IC50 [1] [nM] | IC50 [2] [nM] | IC50 [3] [nM]
1 | COc1cc2nccc(Oc3ccc4c(c3)OCCN4C(=O)Nc3cccc(C)c3)c2cc1OC | 1 | 1 | 1
2 | COc1cc2nccc(Oc3ccc4c(C(=O)Nc5ccc(Cl)cc5)cccc4c3)c2cc1OC | 0.03 | – | –

From ChEMBL document CHEMBL1144028, “Novel 2,3-dihydro-1,4-benzoxazines as potent and orally bioavailable inhibitors of tumor-driven angiogenesis” (J Med Chem, 2008)
